Assay results reported in ChEMBL document CHEMBL1126242 (J Med Chem, 1992).

Target: T1, Endothelin receptor type B (Rattus norvegicus, UniProt P21451)
T1 sequence (P21451 whole entry): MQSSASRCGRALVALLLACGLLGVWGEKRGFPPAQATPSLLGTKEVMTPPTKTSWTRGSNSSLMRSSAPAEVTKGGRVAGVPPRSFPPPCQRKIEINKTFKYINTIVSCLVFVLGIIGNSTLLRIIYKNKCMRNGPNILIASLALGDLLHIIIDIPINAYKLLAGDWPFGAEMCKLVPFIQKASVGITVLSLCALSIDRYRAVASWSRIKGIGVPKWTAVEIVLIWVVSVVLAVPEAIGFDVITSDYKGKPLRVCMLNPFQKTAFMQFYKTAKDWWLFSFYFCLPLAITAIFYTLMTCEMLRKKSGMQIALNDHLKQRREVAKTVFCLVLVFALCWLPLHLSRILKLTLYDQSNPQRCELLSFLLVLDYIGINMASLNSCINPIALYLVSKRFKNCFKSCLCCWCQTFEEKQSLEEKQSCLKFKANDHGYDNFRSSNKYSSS
Assay: Inhibition of ET-1 binding to Endothelin B receptor in cultured rat cerebellar membranes
Assay type: cell membranes, Membrane

Row | Compound | IC50 [µM]
1 | CC[C@H](C)[C@H](NC(=O)[C@H](CC(=O)O)NC(=O)[C@H](CC(C)C)NC(=O)[C@@H](Cc1c[nH]c2ccccc12)NC(C)=O)C(=O)N[C@H](C(=O)N[C@@H](Cc1c[nH]c2ccccc12)C(=O)O)[C@@H](C)CC | 1.8
2 | CC[C@H](C)[C@H](NC(=O)[C@H](CC(=O)O)NC(=O)[C@H](CC(C)C)NC(=O)[C@@H](N)Cc1c[nH]cn1)C(=O)N[C@H](C(=O)N[C@@H](Cc1c[nH]c2ccccc12)C(=O)O)[C@@H](C)CC | > 50
3 | CC[C@H](C)[C@H](NC(=O)[C@H](CC(=O)O)NC(=O)[C@H](CC(C)C)NC(=O)[C@@H](Cc1ccc(-c2ccccc2)cc1)NC(C)=O)C(=O)N[C@H](C(=O)N[C@@H](Cc1c[nH]c2ccccc12)C(=O)O)[C@@H](C)CC | 3.5
